pIC50: −log10 of the molar value.
The molecules below were run against CDK-2 (Homo sapiens, UniProt P24941) (assay: Fluorescence polarization displacement assay (inhibitory effectiveness toward CDK-2)). Settings: IC50, inhibitory effectiveness toward CDK-2.

Row | Structure (SMILES) | pIC50
1 | COC[C@H](Cc1ccc(O)cc1)NC(=O)c1cc(C(=O)O)c2cc(-c3cccc(CN4CCC(O)CC4)c3)ccc2n1 [Compound 193] | < 4.40
2 | COC(=O)[C@H](Cc1ccc(O)cc1)NC(=O)c1cc(C(=O)O)c2cc(-c3ccc(C(C)(C)C)cc3)ccc2n1 [Compound 77] | > 6.00
3 | COC[C@H](Cc1ccc(O)cc1)NC(=O)c1cc(C(=O)O)c2cc(-c3cccc(Cn4ccnc4)c3)ccc2n1 [Compound 22] | > 6.00
4 | O=C(N[C@@H](Cc1ccc(O)cc1)Cn1cccn1)c1cc(C(=O)O)c2cc(/C=C/c3ccc(Cl)cc3)ccc2n1 [Compound 105] | 4.40 to 6.00
5 | COC(=O)[C@H](Cc1ccc(O)cc1)NC(=O)c1cc(C(=O)O)c2cc(-c3cc(F)cc(F)c3)ccc2n1 [Compound 108] | 4.40 to 6.00
6 | COC(=O)C(Cc1ccc(O)cc1)NC(=O)c1cc(C(=O)N(C)C)c2cc(-c3cccs3)ccc2n1 (centres unmarked) [Compound 236] | < 4.40
7 | COC(=O)[C@H](Cc1ccc(O)cc1)N(C)C(=O)c1cc(C(=O)O)c2cc(-c3cccc(C(F)(F)F)c3)ccc2n1 [Compound 168] | < 4.40
8 | COC[C@H](Cc1ccc(O)cc1)NC(=O)c1cc(C(=O)O)c2cc(-c3cccc(C[n+]4cccc(O)c4)c3)ccc2n1 [Compound 24] | > 6.00
9 | COC[C@H](Cc1ccc(O)cc1)NC(=O)c1cc(NS(=O)(=O)c2ccccc2)c2cc(-c3cccc(C(F)(F)F)c3)ccc2n1 [Compound 65] | > 6.00
10 | COC[C@H](Cc1ccc(O)cc1)NC(=O)c1cc(NS(=O)(=O)C(C)(C)C)c2cc(-c3cccc(C(F)(F)F)c3)ccc2n1 [Compound 15] | > 6.00
11 | COC(=O)[C@H](Cc1ccc(O)cc1)NC(=O)c1cc(C(=O)O)c2cc(-c3ccc(C#N)cc3)ccc2n1 [Compound 121] | 4.40 to 6.00
12 | COC(=O)[C@H](Cc1ccncc1)NC(=O)c1cc(C(=O)O)c2cc(-c3cccc(C(F)(F)F)c3)ccc2n1 [Compound 123] | 4.40 to 6.00
13 | CCOC[C@H](Cc1ccc(O)cc1)NC(=O)c1cc(C(=O)O)c2cc(-c3cccc(C(F)(F)F)c3)ccc2n1 [Compound 35] | > 6.00
14 | COC[C@H](Cc1ccc(O)cc1)NC(=O)c1cc(NS(=O)(=O)C(C)(C)C)c2cc(-c3cccc(Cn4ccnc4)c3)ccc2n1 [Compound 28] | > 6.00
15 | COC(=O)[C@H](Cc1ccc(O)c(O)c1)NC(=O)c1cc(C(=O)O)c2cc(-c3cccc(C(F)(F)F)c3)ccc2n1 [Compound 10] | > 6.00
16 | CCC[C@H](NC(=O)c1cc(C(=O)N[C@@H](Cc2ccc(O)cc2)C(=O)OC)nc2ccc(OCc3ccccc3)cc12)C(=O)O [Compound 114] | 4.40 to 6.00
17 | COC(=O)[C@H](Cc1ccc(O)cc1)NC(=O)c1cc(C(=O)O)c2cc(-c3ccccc3C)ccc2n1 [Compound 66] | > 6.00
18 | CCC(C)[C@H](NC(=O)c1cc(C(=O)NC(Cc2ccc(O)cc2)C(=O)OC)nc2ccc(-c3cccs3)cc12)C(=O)O (some centres unmarked) [Compound 132] | 4.40 to 6.00
19 | COC(=O)[C@H](Cc1ccc(O)cc1)NC(=O)c1cc(C(=O)O)c2cc(-c3ccc(-c4ccccc4)cc3)ccc2n1 [Compound 85] | > 6.00
20 | CN(C)CCNC[C@H](Cc1ccc(O)cc1)NC(=O)c1cc(C(=O)O)c2cc(/C=C/c3ccc(Cl)cc3)ccc2n1 [Compound 127] | 4.40 to 6.00
21 | COC[C@H](Cc1ccc(O)cc1)NC(=O)c1cc(C(=O)O)c2cc(C#CCN)ccc2n1 [Compound 221] | < 4.40
22 | COC[C@H](Cc1ccc(O)cc1)NC(=O)c1cc(N2CCCCS2(=O)=O)c2cc(-c3cccc(C(F)(F)F)c3)ccc2n1 [Compound 179] | < 4.40

Row | Structure (SMILES) | pIC50
23 | COC(=O)C[C@H](Cc1ccc(O)cc1)NC(=O)c1cc(C(=O)O)c2cc(-c3cccc(C(F)(F)F)c3)ccc2n1 [Compound 40] | > 6.00
24 | COC(=O)c1ccc(-c2ccc3nc(C(=O)N[C@@H](Cc4ccc(O)cc4)C(=O)OC)cc(C(=O)O)c3c2)cc1 [Compound 101] | 4.40 to 6.00
25 | COC[C@H](Cc1ccc(O)cc1)NC(=O)c1cc(C(=O)O)c2cc(-c3cccc(CO)c3)ccc2n1 [Compound 131] | 4.40 to 6.00
26 | COC[C@H](Cc1ccc(O)cc1)NC(=O)c1cc(NS(=O)(=O)C(C)(C)C)c2cc(C#Cc3ccccn3)ccc2n1 [Compound 119] | 4.40 to 6.00
27 | CC(C)(C)OC(=O)[C@H](Cc1ccc(O)cc1)NC(=O)c1cc(C(=O)O)c2cc(-c3cccc(C(F)(F)F)c3)ccc2n1 [Compound 12] | > 6.00
28 | COC[C@H](Cc1ccc(O)cc1)NC(=O)c1cc(C(=O)O)c2cc(-c3cccc(CN4CCOCC4)c3)ccc2n1 [Compound 138] | 4.40 to 6.00
29 | COC(=O)[C@H](Cc1ccc(O)cc1)NC(=O)c1cc(C(=O)O)c2cc(C(C)c3ccccc3)ccc2n1 (some centres unmarked) [Compound 160] | < 4.40
30 | COC[C@H](Cc1ccc(O)cc1)NC(=O)c1cc(C(=O)O)c2cc(-c3cccc(COc4ccccn4)c3)ccc2n1 [Compound 25] | > 6.00
31 | CN1CCN(C[C@H](Cc2ccc(O)cc2)NC(=O)c2cc(C(=O)O)c3cc(/C=C/c4ccc(Cl)cc4)ccc3n2)CC1 [Compound 80] | > 6.00
32 | Cn1ccnc1[C@H](Cc1ccc(O)cc1)NC(=O)c1cc(C(=O)O)c2cc(-c3cccc(C(F)(F)F)c3)ccc2n1 [Compound 100] | 4.40 to 6.00
33 | COC[C@H](Cc1ccc(O)cc1)NC(=O)c1cc(C(=O)O)c2cc(-c3cccc(CN4CCSC4)c3)ccc2n1 [Compound 124] | 4.40 to 6.00
34 | COC[C@H](Cc1ccc(O)cc1)NC(=O)c1cc(C(=O)O)c2cc(COc3cccnc3)ccc2n1 [Compound 149] | 4.40 to 6.00
35 | COC[C@H](Cc1ccc(O)cc1)NC(=O)c1cc(C(=O)O)c2cc(COc3cccc(F)c3)ccc2n1 [Compound 147] | 4.40 to 6.00
36 | COC[C@H](Cc1ccc(O)cc1)NC(=O)c1cc(C(=O)O)c2cc(-c3cccc(CNCCO)c3)ccc2n1 [Compound 196] | < 4.40
37 | COC[C@H](Cc1ccc(O)cc1)NC(=O)c1cc(C(=O)O)c2cc(OCc3ccccc3)ccc2n1 [Compound 128] | 4.40 to 6.00
38 | NCC[C@H](Cc1ccc(O)cc1)NC(=O)c1cc(C(=O)O)c2cc(/C=C/c3ccc(Cl)cc3)ccc2n1 [Compound 84] | > 6.00
39 | COC[C@H](Cc1ccc(O)cc1)NC(=O)c1cc(C(=O)O)c2cc(CSc3ccc(C(F)(F)F)cc3)ccc2n1 [Compound 111] | 4.40 to 6.00
40 | COC(=O)[C@H](Cc1ccc([N+](=O)[O-])cc1)NC(=O)c1cc(C(=O)O)c2cc(-c3cccc(C(F)(F)F)c3)ccc2n1 [Compound 161] | < 4.40
41 | COC[C@H](Cc1ccc(O)cc1)NC(=O)c1cc(C(=O)O)c2cc(COc3ccc(OC(F)(F)F)cc3)ccc2n1 [Compound 47] | > 6.00
42 | COC(=O)C(Cc1ccc(O)cc1)NC(=O)c1cc(C(=O)N[C@H](C(=O)O)C(C)C)c2cc(-c3cccs3)ccc2n1 (some centres unmarked) [Compound 153] | 4.40 to 6.00
43 | COC(=O)[C@H](Cc1ccc(O)cc1)NC(=O)c1cc(C(=O)N[C@H](C(=O)O)C(C)C)c2cc(OCc3ccccc3)ccc2n1 [Compound 115] | 4.40 to 6.00
44 | COC(=O)[C@H](Cc1ccc(O)cc1)NC(=O)c1cc(C(=O)O)c2cc(-c3ccc4c(c3)OCO4)ccc2n1 [Compound 74] | > 6.00

Row | Structure (SMILES) | pIC50
45 | COC(=O)c1cccc(-c2ccc3nc(C(=O)N[C@@H](Cc4ccc(O)cc4)C(=O)OC)cc(C(=O)O)c3c2)c1 [Compound 62] | > 6.00
46 | COC(=O)[C@H](Cc1ccc(O)cc1)NC(=O)c1cc(C(=O)OCC(O)CO)c2cc(-c3cccs3)ccc2n1 (some centres unmarked) [Compound 232] | < 4.40
47 | COC(=O)[C@H](Cc1ccc(O)cc1)NC(=O)c1cc(C(=O)O)c2cc(C3CC3c3ccccc3)ccc2n1 (some centres unmarked) [Compound 2] | > 6.00
48 | COC[C@H](Cc1ccc(O)cc1)NC(=O)c1cc(NS(=O)(=O)C(C)(C)C)c2cc(-c3cccc(Cn4ccccc4=O)c3)ccc2n1 [Compound 79] | > 6.00
49 | COC[C@H](Cc1ccc(O)cc1)NC(=O)c1cc(C(=O)O)c2cc(CSc3ccc(Cl)cc3)ccc2n1 [Compound 126] | 4.40 to 6.00
50 | NC(=O)[C@H](Cc1ccc(O)cc1)NC(=O)c1cc(C(=O)O)c2cc(-c3cccs3)ccc2n1 [Compound 143] | 4.40 to 6.00
51 | COC(=O)[C@H](Cc1ccc(O)cc1)NC(=O)c1cc(C(=O)O)c2cc(/C=C/c3ccccc3)ccc2n1 [Compound 37] | > 6.00
52 | COC[C@H](Cc1ccc(O)cc1)NC(=O)c1cc(C(=O)O)c2cc(-c3cccc(CNCCN(C)C)c3)ccc2n1 [Compound 198] | < 4.40
53 | NC[C@H](Cc1ccc(O)cc1)NC(=O)c1cc(C(=O)O)c2cc(C#Cc3ccccn3)ccc2n1 [Compound 142] | 4.40 to 6.00
54 | COC(=O)[C@H](Cc1ccc(OC(C)(C)C)cc1)NC(=O)c1cc(C(=O)O)c2cc(/C=C/C(C)(C)C)ccc2n1 [Compound 165] | < 4.40
55 | COC[C@H](Cc1ccc(O)cc1)NC(=O)c1cc(C(=O)O)c2cc(CSc3cccc(Cl)c3)ccc2n1 [Compound 209] | < 4.40
56 | COC(=O)[C@H](Cc1ccc(O)cc1)NC(=O)c1cc(C(=O)OCCN(C)C)c2cc(-c3cccs3)ccc2n1 [Compound 233] | < 4.40
57 | COC(=O)[C@H](Cc1ccc(O)cc1)NC(=O)c1cc(C(=O)O)c2cc(-c3ccc(OCc4ccccc4)cc3)ccc2n1 [Compound 56] | > 6.00
58 | COC[C@H](Cc1ccc(O)cc1)NC(=O)c1cc(C(=O)O)c2cc(COc3cccc(C(F)(F)F)c3)ccc2n1 [Compound 106] | 4.40 to 6.00
59 | COC[C@H](Cc1ccc(O)cc1)NC(=O)c1cc(C(=O)O)c2cc(-c3cccc(CN4CCN(C)CC4)c3)ccc2n1 [Compound 184] | < 4.40
60 | O=C(N[C@@H](Cc1ccc(O)cc1)C(=O)O)c1cc(C(=O)O)c2cc(-c3cccc(Cl)c3)ccc2n1 [Compound 140] | 4.40 to 6.00
61 | COC[C@H](Cc1ccc(O)cc1)NC(=O)c1cc(NS(=O)(=O)c2cccs2)c2cc(-c3cccc(C(F)(F)F)c3)ccc2n1 [Compound 88] | > 6.00
62 | COC[C@H](Cc1ccc(O)cc1)NC(=O)c1cc(NS(=O)(=O)C(C)C)c2cc(-c3cccc(C(F)(F)F)c3)ccc2n1 [Compound 89] | > 6.00
63 | O=C(N[C@H](CO)Cc1ccc(O)cc1)c1cc(C(=O)O)c2cc(-c3cccc(C(F)(F)F)c3)ccc2n1 [Compound 78] | > 6.00
64 | CCS(=O)(=O)Nc1cc(C(=O)N[C@H](COC)Cc2ccc(O)cc2)nc2ccc(-c3cccc(C(F)(F)F)c3)cc12 [Compound 68] | > 6.00
65 | COC(=O)[C@H](Cc1ccc(O)cc1)NC(=O)c1cc(-c2nn[nH]n2)c2cc(-c3cccc(Cl)c3)ccc2n1 [Compound 94] | 4.40 to 6.00

From patent publication US7511063B2, “High affinity quinoline-based kinase ligands” (Schering Corporation, priority 2006, dated 2009)
